Experimental data: publication PMC7400207, “It Takes Two: Dimerization Is Essential for the Broad-Spectrum Predatory and Defensive Activities of the Venom Peptide Mp1a from the Jack Jumper Ant Myrmecia pilosula” (Biomedicines, 2020)

Assays:
F11 cells = test: FLIPR calcium assay, activation of F11 cells; assay type: cell-based
Procedure: F11 cells were cultured as previously described. Cells were maintained on Ham’s F12 media supplemented with 10% fetal bovine serum (FBS), 100 µM hypoxanthine, 0.4 µM aminopterin, and 16 µM thymidine (Hybri-MaxTM, Sigma Aldrich, North Ryde, Australia). Then, 384-well imaging plates (Corning) were seeded 48 h prior to imaging resulting in 90–95% confluence at imaging. Cells were incubated for 30 min with the Calcium 4 assay component A according to the manufacturer’s instructions (Molecular Devices, Sunnyvale, CA, USA) in physiological salt solution (PSS; composition in mM: 140 NaCl, 11.5 D-glucose, 5.9 KCl, 1.4 MgCl2, 1.2 NaH2PO4, 5 NaHCO3, 1.8 CaCl2, 10 HEPES) at 37°C. Fluorescence was measured using a fluorescent imaging plate reader (FLIPR^TETRA) equipped with a CCD camera (Excitation: 470–490 nm, Emission: […]) (Molecular Devices, Sunnyvale, CA, USA). Signals were read every second for 10 s before, and 300 s after the addition of peptides in PSS supplemented with 0.1% bovine serum albumin. All data are the mean ± SEM of assays performed in triplicate. Maximum–minimum fluorescence in the 300 s period after peptide addition was recorded as the response. Concentration–response data were fitted with a four-parameter Hill equation (variable slope) using GraphPad Prism 8 to obtain effective concentration (EC50) values.

Haemonchus contortus = assay type: cell-based
Procedure: Sheep were infected with H. contortus Kirby isolate (field isolate from the University of New England Kirby Research Farm in 1986; susceptible to all commercial anthelmintics) and housed at the Commonwealth Scientific and Industrial Research Organisation (CSIRO) FD McMaster Laboratory, Armidale, NSW. All animal procedures were approved by the FD McMaster Animal Ethics Committee, CSIRO (Approval Number AEC 17/12, approval date 15.6.2017). Eggs were prepared from overnight fecal collection as described. In brief, feces were filtered through mesh filters, settled, and supernatant removed by vacuum. Eggs were recovered by density centrifugation using 10 and 25% (w/v) sucrose solutions, centrifuged at 650× g for 7 min. Eggs were recovered from the interface of the two sucrose layers, rinsed with distilled water, sterilized with bleach, rinsed again, and diluted to 4500 eggs/mL. Tylosin tartrate (800 μg/mL) and amphotericin B (25.0 μg/mL) were added, and eggs were used immediately for larval development assays.
Assays were conducted using 96-well microtitre plates, with each well containing 50 μL of 2% agar, 20 μL of egg solution and 20 μL of peptide solution in water. […] Larvae that had developed to the infective L3 stage were counted, and the numbers in treated assay wells were expressed as a percentage of the number of infective L3 stage larvae in multiple control wells. […]

Drosophila melanogaster = Drosophila melanogaster microinjection assay; assay type: in vivo; settings: intrathoracic injection, 50 nL, adult female flies, lethality at 24 h; three dose-response curves, ± SEM
Procedure: The insecticidal activity of the chemically synthesized 1a and analogues thereof were determined by injection into adult female D. melanogaster aged 3–5 days (mass 0.7–0.9 mg) as described previously. Analogues were dissolved in water and intrathoracically injected using pulled glass capillaries at a volume of 50 nL per fruit fly, and the results were compared against an equivalent injection volume of water alone. All injections were performed in the morning or early afternoon. At 24 h post-injection flies were monitored for lethality. Dose–response curves were constructed using 7–10 doses per analogue (each dose tested in eight flies) and three separate dose–response curves were constructed for each analogue. The lethality in the groups receiving the analogues were adjusted using the respective control group lethality using the Henderson-Tilton formula [20]. The median lethal dose (LD50) of each analogue was calculated based on the three dose–response curves using GraphPad Prism 8.0 [21]. One-way ANOVA followed by Dunnett’s multiple comparison test were used to compare LD50 values.

A. baumannii ATCC 19606 [1] = test: MIC dilution assay; assay type: cell-based; settings: selectivity
Procedure: Compounds were serially diluted in cation-adjusted Mueller Hinton Broth (CaMHB) twofold across the wells of non-binding surface 96-well plates (Corning), plated in duplicate. Bacteria (strains listed in Table 1) were cultured in CaMHB at 37 °C overnight, then diluted 40-fold and incubated at 37 °C for a further 2–3 h. The resultant mid-log phase cultures were diluted in CaMHB and added to each well of the compound-containing 96-well plates to give a final cell density of 5 × 10^5 CFU/mL, and a final compound concentration range of 0.06–128 μg/mL. The plates were covered and incubated at 37 °C for 20 h. Inhibition of bacterial growth was determined visually, where the minimum inhibitory concentration (MIC) was recorded as the lowest compound concentration that yielded no visible growth.

HEK293 cells = settings: HEK293, 24 h, resazurin; cited from earlier work
Procedure: (§1) Table 2 Summary of bioassay data for synthetic Mp1a and analogues, including effective concentration (EC50) for activation of F11 cells, concentrations that caused 50% inhibition (IC50) for inhibition of larval development of H. contortus; median lethal dose (LD50) for lethal insecticidal effects on D. melanogaster; concentrations required to induce 50% cell death (CC50) for effects on viability o | column: Cytotoxicity (CC50 µM) ^b

human red blood cells = settings: cited from earlier work
Procedure: as §1, with “Hemolysis (HC50” for “Cytotoxicity (CC50”

A. baumannii ATCC 19606 [2] = settings: strain not stated at b53, analogues 1-4 previously assayed; cited from earlier work

## CC[C@H](C)[C@H](N)C(=O)N[C@@H](CC(=O)O)C(=O)N[C@@H](Cc1c[nH]c2ccccc12)C(=O)N[C@@H](CCCCN)C(=O)N[C@@H](CCCCN)C(=O)N[C@H](C(=O)N[C@@H](CC(=O)O)C(=O)N[C@@H](Cc1c[nH]c2ccccc12)C(=O)N[C@@H](CCCCN)C(=O)N[C@@H](CCCCN)C(=O)N[C@H](C(=O)N[C@@H](CO)C(=O)N[C@@H](CCCCN)C(=O)N[C@@H](CCCCN)C(=O)N[C@H](C(=O)N[C@@H](CSSC[C@H](NC(=O)[C@@H](NC(=O)CNC(=O)[C@H](CCCCN)NC(=O)[C@H](CO)NC(=O)[C@@H](NC(=O)[C@H](CC(C)C)NC(=O)CNC(=O)[C@@H](NC(=O)[C@@H](N)CC(C)C)[C@@H](C)CC)C(C)C)[C@@H](C)O)C(=O)N[C@H](C(=O)N[C@@H](CC(C)C)C(=O)N[C@H](C(=O)N[C@@H](CCCCN)C(=O)N[C@H](C(=O)N[C@H](C(=O)N[C@@H](CSCNC(C)=O)C(=O)N[C@@H](CCCCN)C(=O)N[C@@H](CCCCN)C(=O)N[C@H](C(=O)N[C@@H](CC(C)C)C(=O)N[C@@H](CCCCN)C(=O)N[C@@H](CCC(N)=O)C(N)=O)C(C)C)C(C)C)[C@@H](C)O)C(C)C)C(C)C)C(=O)N[C@@H](CCCCN)C(=O)N[C@H](C(=O)N[C@@H](CCSC)C(=O)N[C@@H](CC(C)C)C(=O)N[C@@H](CCCCN)C(=O)N[C@@H](C)C(=O)N[C@@H](CSCNC(C)=O)C(=O)N[C@@H](CCCCN)C(=O)N[C@@H](Cc1ccccc1)C(=O)N[C@@H](CC(C)C)C(N)=O)C(C)C)[C@@H](C)O)C(C)C)C(C)C [Analogue 2b]
F11 cells; F11 cells, FLIPR
  Concentration at which cytolysis (rapid increase in fluorescence followed by decrease to or below baseline) was observed: 100 µM
F11 cells; F11 cells, FLIPR, Calcium 4 dye, max-min fluorescence in 300 s after peptide addition, PSS with 0.1% BSA, mean ± SEM, triplicate, read-out: Neuronal Cell Activation (EC50)
  EC50: 38.5 ± 2.3 µM
F11 cells; ratio of EC50 values
  Fold less active than native Mp1a (1a), F11 cell activation: 45 fold
Haemonchus contortus; H. contortus Kirby isolate, egg to infective L3, 6 days, 26 °C, three experiments of duplicate assays, ± SEM, for 1a the component at higher concentrations (about 90% of population), read-out: Anthelmintic Activity (IC50), inhibition of larval development
  IC50: 65.6 ± 14.7 µM
Haemonchus contortus; ratio of IC50 values, larval development
  Fold less active than 1a, anthelmintic activity: four- to eightfold
Drosophila melanogaster
  Insecticidal Activity (LD50): > 600 pmol/g
A. baumannii ATCC 19606 [1]
  Fold by which MIC against A. baumannii is lower than EC50 against F11 cells: approximately 1500 fold
HEK293 cells
  Cytotoxicity (CC50): > 10 µM
Human red blood cells
  Hemolysis (HC50): > 10 µM
A. baumannii ATCC 19606 [2]
  minimum inhibitory concentration: 0.025 to 0.1 µM
